Measured values: PubChem BioAssay AID624125 (The Scripps Research Institute Molecular Screening Center, 2012)
Only a part is listed here, and it is no random draw. Calls of active or inactive are those of the source.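 Rule for the calls: active = inhibition above its plate's cutoff, the mean inhibition of sample wells plus 3 SD (cut at about 27% in these data); inactive = the rest.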

Sequences of proteins named here, by UniProt entry; tags and fusion partners are left off.
UniProt P08173, whole entry: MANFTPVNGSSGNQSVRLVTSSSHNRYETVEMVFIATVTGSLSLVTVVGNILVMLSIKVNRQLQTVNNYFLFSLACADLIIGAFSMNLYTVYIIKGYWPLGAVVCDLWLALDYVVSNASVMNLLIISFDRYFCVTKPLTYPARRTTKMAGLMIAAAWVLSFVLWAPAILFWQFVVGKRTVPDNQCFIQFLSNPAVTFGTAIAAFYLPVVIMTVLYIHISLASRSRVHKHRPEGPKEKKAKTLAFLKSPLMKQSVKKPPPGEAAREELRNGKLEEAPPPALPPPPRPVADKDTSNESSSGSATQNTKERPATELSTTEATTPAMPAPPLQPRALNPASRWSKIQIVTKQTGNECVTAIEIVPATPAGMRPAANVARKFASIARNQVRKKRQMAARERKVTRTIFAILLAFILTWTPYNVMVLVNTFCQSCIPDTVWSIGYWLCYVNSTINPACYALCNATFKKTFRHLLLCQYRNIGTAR

The molecules below were run against Muscarinic acetylcholine receptor M4 (Homo sapiens) (UniProt P08173) (assay: human M4 muscarinic receptor antagonists, primary screen, CHO cells, Fluo-8 calcium fluorescence (AID 624125;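 note: 0% = acetylcholine EC80 with DMSO and 100% = DMSO without agonist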)). Conditions: CHO-hM4 cells, ACh EC80, Fluo-8 calcium fluorescence; at 3 µM; hits give high values.

Compound | inhibition
O=C(NCC1(N2CCOCC2)CCCCC1)c1cc(Br)ccc1Cl | inactive: -28.9%
COc1cc(C(=O)NCC2(N3CCOCC3)CCCCC2)cc(OC)c1C | inactive: -4.9%
CCCCn1nnnc1C(c1ccccc1)N1CCC(n2c(=O)[nH]c3ccccc32)CC1 (configuration not stated) | inactive: 12.1%
O=c1[nH]c2ccccc2n1C1CCN(C(c2ccnc3ccccc23)c2nnnn2C2CCCC2)CC1 (configuration not stated) | inactive: 4.58%
COc1ccc(C(=O)NCC2(N3CCOCC3)CCCCC2)cc1OC | inactive: -9.04%
O=c1[nH]c2ccccc2n1C1CCN(C(c2cccs2)c2nnnn2C2CCCCC2)CC1 (configuration not stated) | inactive: 24.3%
N/C(=N\O)c1c(N)no[n+]1[O-] | inactive: -4.94%
COc1cccc(C(c2nnnn2C(C)(C)C)N2CCC(n3c(=O)[nH]c4ccccc43)CC2)c1OC (configuration not stated) | inactive: -14.2%
CCOC(=O)N1CCC(Nc2ccc(C)cc2)CC1 | inactive: 6.51%
CCCCn1nnnc1C(c1cccc(OC)c1OC)N1CCC(n2c(=O)[nH]c3ccccc32)CC1 (configuration not stated) | inactive: 14.8%
O=c1[nH]c2ccccc2n1C1CCN(C(c2cccs2)c2nnnn2C2CCCC2)CC1 (configuration not stated) | inactive: 7.79%
CC(C)(C)OC(=O)N1CCC(N(C(=O)c2ccccc2)c2ccc(Cl)cc2)CC1 | inactive: -26.2%
N#Cc1ccc(C(=O)NCC2(N3CCCCC3)CCCCC2)cc1 | inactive: -4.76%
CCCN1CCC(Nc2cc(OC)cc(OC)c2)CC1 | inactive: -1.56%
O=c1[nH]c2ccccc2n1C1CCN(C(c2ccccc2)c2nnnn2C2CCCC2)CC1 (configuration not stated) | inactive: 12.9%
Cc1cc(N(CCCl)CCCl)ccc1C=O | inactive: -7.69%
c1ccc(CN2CCC(Nc3ccccc3)CC2)cc1 | inactive: -1.66%
CN(C)C1(CNC(=O)c2cccc(C#N)c2)CCCCC1 | inactive: -8.08%
CC(C)(C)n1nnnc1C(c1cccc2ccccc12)N1CCC(n2c(=O)[nH]c3ccccc32)CC1 (configuration not stated) | inactive: 10.7%
O=c1[nH]c2ccccc2n1C1CCN(C(c2ccnc3ccccc23)c2nnnn2C2CCCCC2)CC1 (configuration not stated) | inactive: -2.52%
COc1cc(OC)cc(C(=O)NCC2(N3CCCCC3)CCCCC2)c1 | inactive: 3.55%
CCC(c1nnnn1C1CCCCC1)N1CCC(n2c(=O)[nH]c3ccccc32)CC1 (configuration not stated) | inactive: -20.2%
CC(=O)N(c1ccccc1)C1CCNCC1 | inactive: -9.34%
COc1cccc(C(c2nnnn2C2CCCCC2)N2CCC(n3c(=O)[nH]c4ccccc43)CC2)c1OC (configuration not stated) | inactive: 22.7%
Cc1ccc(NC2(C#N)CCN(Cc3ccccc3)CC2)cc1 | inactive: -3.9%
Fc1ccccc1NC1CCN(Cc2ccccc2)CC1 | inactive: -10.2%

Compound | inhibition
Cc1ccc(C(=O)NCC2(N3CCCCC3)CCCCC2)o1 | inactive: 1.85%
CC(C)(C)n1nnnc1C(c1ccnc2ccccc12)N1CCC(n2c(=O)[nH]c3ccccc32)CC1 (configuration not stated) | inactive: -14.4%
COc1ccc(C(c2nnnn2C2CCCCC2)N2CCC(n3c(=O)[nH]c4ccccc43)CC2)cc1 (configuration not stated) | inactive: -7.51%
CCN1CCC(Nc2cccc(F)c2)CC1 | inactive: -14.2%
Cc1ccccc1NC1(C#N)CCN(Cc2ccccc2)CC1 | inactive: -3.07%
Cn1c(=O)[nH]cc(N(CCCl)CCCl)c1=O | inactive: -3.67%
CN(C)c1ccc(C(=O)NCC2(N3CCCCC3)CCCCC2)cc1 | inactive: -14.4%
O=C(NCC1(N2CCCCC2)CCCCC1)c1ccco1 | inactive: -3.42%
CN1CCC(Nc2ccc(F)c(Cl)c2)CC1 | inactive: 18.3%
CCOc1ncccc1C(=O)NCC1(N2CCOCC2)CCCCC1 | inactive: 0.51%
CCCOc1ccc(C(=O)NCC2(N(C)C)CCCCC2)cc1 | inactive: -1.07%
O=c1[nH]c2ccccc2n1C1CCN(C(c2cc3ccccc3o2)c2nnnn2C2CCCC2)CC1 (configuration not stated) | inactive: 14.1%
NN(c1ccccc1)C1CCN(CCc2ccccc2)CC1 | inactive: 11.2%
O=C(O)C1(Nc2ccccc2)CCN(Cc2ccccc2)CC1 | inactive: -4.52%
CC(C)(C)OC(=O)N1CCC(Nc2ccccc2)CC1 | inactive: 3.84%
COc1cccc(C(=O)N(c2cc(C)cc(C)c2)C2CCN(C(=O)OC(C)(C)C)CC2)c1 | inactive: 12.2%
COc1cc(OC)cc(C(=O)NCC2(N3CCOCC3)CCCCC2)c1 | inactive: 2.01%
COc1cccc(C(c2nnnn2C2CCCC2)N2CCC(n3c(=O)[nH]c4ccccc43)CC2)c1OC (configuration not stated) | inactive: 14.3%
CN1CCC(Nc2ccc(Cl)cc2)CC1 | inactive: 3.42%
CCCCn1nnnc1C(c1cccs1)N1CCC(n2c(=O)[nH]c3ccccc32)CC1 (configuration not stated) | inactive: 26.2%
CCCCn1nnnc1C(CC)N1CCC(n2c(=O)[nH]c3ccccc32)CC1 (configuration not stated) | inactive: 5.53%
O=C(NCC1(N2CCCCC2)CCCCC1)c1cccs1 | inactive: 3.44%
O=C(NCC1(N2CCCCC2)CCCCC1)c1ccc(=O)[nH]c1 | inactive: 5.96%
CCC(c1nnnn1C1CCCC1)N1CCC(n2c(=O)[nH]c3ccccc32)CC1 (configuration not stated) | inactive: -19.2%
COc1ccc(C(=O)NCC2(N3CCCCC3)CCCCC2)c(OC)c1OC | inactive: -10.1%
CC(C)(C)OC(=O)N1CCC(N(C(=O)c2ccccc2)c2ccc(F)cc2)CC1 | inactive: 2.51%
